## Ab-95 light chain CDR variants: yeast mating affinities

Data: MIT Lincoln Laboratory AlphaSeq set, Engelhart et al. 2022, doi:10.1038/s41597-022-01779-4, as distributed in FLAb.

All variants were tested on one target, the spike HR2 peptide PDVDLGDISGINAS (SARS-CoV-2).

Parent: Ab-95, a human scFv built as VH, a (GGGGS)3 linker, VL. Only the CDRs of the light chain vary.
VH: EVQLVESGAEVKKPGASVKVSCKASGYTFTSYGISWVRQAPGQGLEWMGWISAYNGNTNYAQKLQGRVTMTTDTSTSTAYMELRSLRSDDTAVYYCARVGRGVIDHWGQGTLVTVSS
VL: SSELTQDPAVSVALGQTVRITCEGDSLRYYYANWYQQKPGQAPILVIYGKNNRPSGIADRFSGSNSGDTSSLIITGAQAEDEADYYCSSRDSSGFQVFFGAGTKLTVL

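The parent was found by panning a naive human phage display library on the peptide. Library AAYL52 holds single substitutions and randomly drawn double and triple substitutions in the CDRs. The scFvs were displayed on barcoded MATa yeast, the peptide on MATalpha yeast. Mating (16 h, 30 °C) was followed by selection of diploids and sequencing of their barcodes. Each replicate has its own calibration line, from reference interactions of the BCL2 family. The assay was run in three technical replicates.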

Variants are written as CDR1, CDR2 and CDR3 of the light chain (limits as in the source). Parent: EGDSLRYYYAN, GKNNRPS, SSRDSSGFQVF. Scale: log10 of Kd in nM, estimated from mating counts; low values are strong binders. "nd" marks a missing value. The strain was present, yet no cells mated with the target were sequenced in that replicate, which points to weak or no binding.

CDR-L1 | CDR-L2 | CDR-L3 | log10 Kd, replicates | signal with controls
EGDSLRYYYAN | GKNNWPS | SSRDSYGFQGF | 5.00 / nd / nd | 2 of 9 (4.04)
EGDGNRYYYAY | GKNNRPS | SSRDSSGFQVF | 2.89 / 2.30 / 3.25 | 4 of 9 (3.80)
EFDSLMYYYAN | GKNRRPS | SSRDSSGFQVF | 3.38 / 3.05 / 2.46 | 2 of 9 (3.81)
EGDSLRYYYAN | GKNNRPS | SHRDSSGFQVF | 2.54 / 2.30 / 1.95 | 5 of 9 (4.32)
EGDVLRYYYAN | GKNSRLS | SSRDSSGFQVF | nd / nd / 3.19 | 4 of 9 (3.79)
EGDFLRYYMRN | GKNNRPS | SSRDSSGFQVF | nd / nd / nd | 3 of 9 (4.17)
EGDSLRYYYAN | GKNNRPS | SSRDSSGRQWF | 2.84 / 2.28 / 2.46 | 5 of 9 (3.88)
EQDSLRYYYAD | GKNNRPS | SSRDSRGFQVF | nd / nd / nd | 5 of 9 (3.84)
RGDLLRYYYAI | GKNNRPS | SSRDSSGFQVF | 3.32 / 3.58 / 3.07 | 3 of 9 (4.04)
EGDSLRYYNNN | GKNNRPS | SSRDSSGFQVR | 4.03 / 3.43 / 3.32 | 3 of 9 (4.25)
EGDSLRYYYAN | GKNNLPS | FSRDSSVFQVF | nd / nd / nd | 3 of 9 (3.63)
SGDSLRYYYAN | GKANRPS | SSRDSSQFQVF | 3.47 / 3.62 / 3.29 | 6 of 9 (3.90)
EGDSARYIYAN | GKNNRPS | SHRDSSGFQVF | 3.65 / 3.26 / nd | 7 of 9 (3.89)
EGDSLRVYYAN | GKNLRPS | SSRDSKGFQVF | 3.88 / nd / 3.17 | 0 of 9
EGDYLRYYYAN | GKNNRMS | SSRDSSGFQVS | 3.22 / nd / nd | 0 of 9
EGDSLRYYYAN | GFNNRPS | SSTDSSGFQVR | 3.60 / 4.46 / nd | 4 of 9 (3.76)
EGDSKRYNYAN | GKNNRPS | SSRISSGFQVF | 3.01 / 2.57 / 3.25 | 0 of 9
EGDSLRYYYAN | GKNNRPS | QSRDSSWVQVF | 3.21 / 2.73 / 2.49 | 3 of 9 (3.32)
EGLSLRVYYIN | GKNNRPS | SSRDSSGFQVF | 4.96 / nd / 4.44 | 3 of 9 (3.83)
EGISLRYYYAN | GKANRPS | SSRDSSGRQVF | 2.71 / 2.35 / 2.46 | 2 of 9 (4.05)
EGDSLRYYYAN | SVNNRPS | SSRDSSIFQVF | nd / 4.29 / nd | 1 of 9 (4.33)
EGSSLRYYCAN | GKNNRPS | SSRDSHGFQVF | 2.70 / 2.82 / 2.57 | 3 of 9 (4.22)
EGDSLRYYYAY | GKNNRPS | SSRDSSGFQVF | 2.96 / 3.12 / 3.74 | 5 of 9 (4.29)
EGDSLDYYYAN | GKCNRAS | SSRDSSGFQVF | nd / 3.25 / nd | 2 of 9 (3.70)
EGDSLRYYYAN | GKNNRPS | SGRDSSGFQVG | 2.49 / 2.43 / 2.52 | 6 of 9 (4.20)
EGDSLRYYNAN | GKNDRPY | SSRDSSGFQVF | 1.17 / 1.21 / 0.55 | 6 of 9 (4.58)
EGDSHRYYYAN | GKHNRPS | SSRDSSGFQVV | nd / nd / nd | 4 of 9 (3.81)
EGTSLRYYYAH | GKNNRPS | SSRPSSGFQVF | 4.36 / nd / 4.06 | 3 of 9 (3.72)
ENDSLRYYYAM | GKNNRPS | NSRDSSGFQVF | nd / 4.73 / nd | 2 of 9 (4.38)
SGDSLRYYYAN | GKNMRTS | SSRDSSGFQVF | 2.44 / 2.10 / 1.51 | 1 of 9 (4.24)
EGDWLRPYYAN | GKNNRPS | SSRDSSGVQVF | 4.05 / nd / 4.10 | 3 of 9 (4.07)
FGLSLRYYYAN | GKNNRPS | SSRDSAGFQVF | 3.14 / nd / 3.25 | 1 of 9 (4.66)
EGDPLRYYYAN | GKNNRPE | SSRDSQGFQVF | 2.36 / 2.42 / 2.00 | 4 of 9 (4.10)
EPDDLRYYYAN | GKNNRPS | SSRDSSPFQVF | nd / nd / nd | 0 of 9
EGDSLCYYYRN | KKNNRPS | SSRDSSGFQVF | 4.25 / nd / nd | 0 of 9
EGDSLRYYYAN | WKGNRPS | SSRDDSGFQVF | 4.47 / nd / nd | 2 of 9 (4.13)
EGDSKRYYYAK | GKNNRPS | SSRDSSGFRVF | 5.90 / nd / 3.50 | 2 of 9 (4.27)
EGDKLRYYYAN | GKENRPS | SHRDSSGFQVF | 4.96 / nd / nd | 2 of 9 (4.21)
LGDSLRYHYAN | GKLNRPS | SSRDSSGFQVF | 3.39 / 2.81 / 3.56 | 1 of 9 (4.59)
EGDSLRYYYAN | GKNNRPS | HSRDASGYQVF | nd / 3.87 / nd | 1 of 9 (3.23)
EGNSLRYYYAN | GKNNHPY | SSRDSSGFQVF | 3.83 / 2.88 / nd | 0 of 9
EGDSLRYYYAN | HKNNRPS | SSRDSSLFAVF | 3.90 / 3.30 / 4.48 | 4 of 9 (3.53)
QGISLRYYYAN | GKNNRPS | SSRDCSGFQVF | 2.39 / 3.28 / nd | 3 of 9 (3.57)
EGDSLRYYYAN | GKNNRPG | GSRDSSGFQSF | 5.00 / nd / nd | 1 of 9 (4.91)

Picked from the list: the 6 lowest averages where every replicate gave a value.

{"CDR-L1": "EGDSLRYYNAN", "CDR-L2": "GKNDRPY", "CDR-L3": "SSRDSSGFQVF", "log10 Kd, replicates": "1.17 / 1.21 / 0.55", "signal with controls": "6 of 9 (4.58)"}
{"CDR-L1": "SGDSLRYYYAN", "CDR-L2": "GKNMRTS", "CDR-L3": "SSRDSSGFQVF", "log10 Kd, replicates": "2.44 / 2.10 / 1.51", "signal with controls": "1 of 9 (4.24)"}
{"CDR-L1": "EGDPLRYYYAN", "CDR-L2": "GKNNRPE", "CDR-L3": "SSRDSQGFQVF", "log10 Kd, replicates": "2.36 / 2.42 / 2.00", "signal with controls": "4 of 9 (4.10)"}
{"CDR-L1": "EGDSLRYYYAN", "CDR-L2": "GKNNRPS", "CDR-L3": "SHRDSSGFQVF", "log10 Kd, replicates": "2.54 / 2.30 / 1.95", "signal with controls": "5 of 9 (4.32)"}
{"CDR-L1": "EGDSLRYYYAN", "CDR-L2": "GKNNRPS", "CDR-L3": "SGRDSSGFQVG", "log10 Kd, replicates": "2.49 / 2.43 / 2.52", "signal with controls": "6 of 9 (4.20)"}
{"CDR-L1": "EGISLRYYYAN", "CDR-L2": "GKANRPS", "CDR-L3": "SSRDSSGRQVF", "log10 Kd, replicates": "2.71 / 2.35 / 2.46", "signal with controls": "2 of 9 (4.05)"}

Three control strains display no target. For library AAYL52, 28% of the pairings with them gave a signal, with a median of 3.91 and one signal in twenty below 2.90, so weak values seen in few replicates may be background. Also given: how often the same scFv was detected with the empty control strains, with their mean in brackets.